Data taken from US20230091225A1, “Bifunctional chimeric heterocyclic compounds for targeted degradation of androgen receptors and use thereof” (HINOVA PHARMACEUTICALS INC., priority 2019, published 2023).

Protein sequences, listed by entry. Tags and fused reporters are not part of them. Lines headed by an entry give the natural chain unless they say otherwise; changes in a name come on top.
UniProt P10275: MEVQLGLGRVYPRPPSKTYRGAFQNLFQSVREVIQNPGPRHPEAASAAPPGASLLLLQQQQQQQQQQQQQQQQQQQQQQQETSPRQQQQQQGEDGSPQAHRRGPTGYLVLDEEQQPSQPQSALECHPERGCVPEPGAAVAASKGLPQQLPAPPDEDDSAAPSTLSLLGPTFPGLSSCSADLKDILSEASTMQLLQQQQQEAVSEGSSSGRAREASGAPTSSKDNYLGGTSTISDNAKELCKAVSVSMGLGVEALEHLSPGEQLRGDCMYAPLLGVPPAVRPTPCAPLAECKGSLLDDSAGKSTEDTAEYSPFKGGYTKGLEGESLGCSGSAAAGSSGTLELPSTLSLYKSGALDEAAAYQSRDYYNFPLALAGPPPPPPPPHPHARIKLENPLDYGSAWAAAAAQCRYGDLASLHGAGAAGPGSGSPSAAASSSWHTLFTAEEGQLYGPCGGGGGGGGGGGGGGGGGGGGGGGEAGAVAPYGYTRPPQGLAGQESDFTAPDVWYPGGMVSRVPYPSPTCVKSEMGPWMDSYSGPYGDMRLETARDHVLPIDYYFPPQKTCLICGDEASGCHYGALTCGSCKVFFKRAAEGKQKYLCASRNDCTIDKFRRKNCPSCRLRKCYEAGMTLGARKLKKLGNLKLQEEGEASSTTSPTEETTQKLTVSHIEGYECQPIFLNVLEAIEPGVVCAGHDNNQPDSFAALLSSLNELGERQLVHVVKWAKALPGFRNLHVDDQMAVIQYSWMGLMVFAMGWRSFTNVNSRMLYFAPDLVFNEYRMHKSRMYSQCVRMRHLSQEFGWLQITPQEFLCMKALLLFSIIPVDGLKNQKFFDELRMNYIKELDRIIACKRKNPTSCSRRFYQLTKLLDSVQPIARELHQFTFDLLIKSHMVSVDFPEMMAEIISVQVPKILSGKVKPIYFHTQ

Legend:
androgen receptor (AR) [1] = biological target: T1, androgen receptor (AR) (Homo sapiens, UniProt P10275); assay: Degradation of androgen receptor (AR) protein in VCaP cells by ELISA; format: cell-based
androgen receptor (AR) [2] = biological target: T1, androgen receptor (AR); assay: Degradation of androgen receptor (AR) protein in VCaP cells by Western blot; format: cell-based; conditions: percentage of degraded AR at 100 nM, 16 h
Method: Determination of the Degradation Activity of the Compound on Androgen Receptor (AR) Protein by Western Blot
1) VCaP cells were subcultured in cell culture media, and then the cells in good growth condition were seeded in a 12-well plate at 1 ml/well (5×10^5 cells/well), and cultured overnight in a 37° C., 5% CO2 cell incubator. 2) The test compound was prepared into a 10 mM stock solution with dimethyl sulfoxide (DMSO). Prior to use, the solution was diluted 3 times with DMSO. […] of the diluted compound solution was added to the cell culture well (ensuring that the DMSO concentration in the culture system was 0.1%), and two wells were set for each concentration. The plate was gently shaken to mix. In addition, the experiment included negative control wells (containing equal amount of DMSO) and positive control wells. 3) After culturing 16 h. the cells were lysed with RIPA cell lysate, and the protein was extracted. The protein concentration was measured with BCA kit. 5-fold concentrated protein loading buffer was added, and after heated at 100° C. for 5 min. the sample was stored at −20° C. 4) for each well, 30 μg of protein was loaded on polyacrylamide gel for electrophoresis. 5) The protein was transferred from polyacrylamide gel to PVDF membrane, and then 5% skim milk was added to close for 1 h at room temperature. […]

Substance	DC50 (androgen receptor (AR) [1])	Dmax (%) (androgen receptor (AR) [1])	% degradation (androgen receptor (AR) [2])
2-chloro-4-((1r,3r)-3-(2-(4-((2-(2,6-dioxopiperidin-3-yl)-6-fluoro-1,3-dioxoisoindolin-5-yl)-2,7-diazaspiro[3.5]nonane-7-yl)methyl)piperidin-1-yl)-5-oxo-5,7-dihydro-6H-pyrrolo[3,4-b]pyridin-6-yl)-2,2,4,4-tetramethylcyclobutoxy) benzonitrile [Compound 90]	10 to 100 nM	+++ (key: ++++: >80%; +++: 80%-60%; ++: 60%-40%; +: <40%)	–
2-chloro-4-((1r,4r)-4-(2-(4-((4-(3-(2,6-dioxopiperidin-3-yl)-2-methyl-4-oxo-3,4-dihydroquinazoline-7-yl)piperazin-1-yl)methyl)piperidin-1-yl)-5-oxo-5H-pyrrolo[3,4-b]pyridin-6(7H)-yl)cyclohexyl)oxy)benzonitrile [Compound 309]	–	–	C (49%-25%)
